Results as given in patent publication EP4840453A1, “CANCER TREATMENT AGENT CONTAINING CLK INHIBITOR AS ACTIVE INGREDIENT” (dated 2026).

Columns and labels:
HL-60 = assay: Cell proliferation assay (ATPlite 1Step), single agents and combination with Compound A, curve-shift and CI; 72 h culture, 120 h for EPZ-6438, JQ1, MLN-4924, MLN-7243, MPI-0479605, NMS-P715
NCI-H661 = assay: as above
[1] = blending ratio (Compound A : combined compound) 4:1, Fa 90
[2] = NCI-H661, Compound A + combined compound at fixed concentration 1 µM, Fa 50
[3] = blending ratio (Compound A : combined compound) 1:1, Fa 90
[4] = NCI-H661, blending ratio (Compound A : combined compound) 1:1, Fa 75
[5] = NCI-H661, blending ratio (Compound A : combined compound) 1:4, Fa 50
[6] = NCI-H661, blending ratio (Compound A : combined compound) 4:1, Fa 50
[7] = NCI-H661, blending ratio (Compound A : combined compound) 4:1, Fa 75
[8] = blending ratio (Compound A : combined compound) 4:1, Fa 75
[9] = Compound A : combined compound 1:1, Fa 50, 72 h culture
[10] = Compound A : combined compound 1:4, Fa 50, 72 h culture
[11] = Compound A : combined compound 4:1, Fa 50, 72 h culture
[12] = blending ratio (Compound A : combined compound) 1:4, Fa 90
[13] = blending ratio (Compound A : combined compound) 4:1, Fa 50
[14] = NCI-H661, Compound A + combined compound at fixed concentration 3.2 µM, Fa 75
[15] = blending ratio (Compound A : combined compound) 1:1, Fa 75
[16] = blending ratio (Compound A : combined compound) 1:4, Fa 50
[17] = NCI-H661, blending ratio (Compound A : combined compound) 1:1, Fa 50
[18] = blending ratio (Compound A : combined compound) 1:4, Fa 75
[19] = NCI-H661, blending ratio (Compound A : combined compound) 1:4, Fa 75

## CCc1cccc(CC)c1NC(=O)c1nn(C)c2c1CCc1cnc(Nc3ccc(C(=O)NC4CCN(C)CC4)cc3OC(F)(F)F)nc1-2
HL-60; [1]
  CI: 1.07
NCI-H661; [2]
  CI: 0.91
NCI-H661; NCI-H661, Compound A + combined compound at fixed concentration 1 µM, Fa 75
  CI: 0.93
NCI-H661; NCI-H661, Compound A + combined compound at fixed concentration 1 µM, Fa 90
  CI: 0.92

## Cc1cc(Nc2ncc(Cl)c(Nc3ccccc3S(=O)(=O)C(C)C)n2)c(OC(C)C)cc1C1CCNCC1
HL-60; [3]
  CI: 0.75
NCI-H661; [4]
  CI: 0.56
NCI-H661; [5]
  CI: 0.56
NCI-H661; NCI-H661, blending ratio (Compound A : combined compound) 1:4, Fa 90
  CI: 0.10
NCI-H661; [6]
  CI: 0.79
NCI-H661; [7]
  CI: 0.50

## S=c1nc[nH]c2nc[nH]c12
HL-60; [3]
  CI: 0.90

## N#CCNC(=O)c1ccc(-c2ccnc(Nc3ccc(N4CCOCC4)cc3)n2)cc1
NCI-H661; [2]
  CI: 0.93

## O=C1c2c(O)ccc(O)c2C(=O)c2c(NCCNCCO)ccc(NCCNCCO)c21
HL-60; [8]
  CI: 0.93
HL-60; [1]
  CI: 1.04
NCI-H661; [9]
  CI: 0.79
NCI-H661; Compound A : combined compound 1:1, Fa 75, 72 h culture
  CI: 0.69
NCI-H661; [10]
  CI: 0.41
NCI-H661; [11]
  CI: 0.79
NCI-H661; Compound A : combined compound 4:1, Fa 75, 72 h culture
  CI: 0.54

## C[C@@H]1COCCN1c1cc(-c2ccnn2C)c2ccnc(-c3ccn[nH]3)c2n1
HL-60; [12]
  CI: 0.27
HL-60; [13]
  CI: 0.87

## O=C(c1cc(Cc2n[nH]c(=O)c3ccccc23)ccc1F)N1CCN(C(=O)C2CC2)CC1
NCI-H661; [14]
  CI: 0.10

## N[C@@H](Cc1ccc(N(CCCl)CCCl)cc1)C(=O)O
HL-60; Compound A + combined compound at fixed concentration 3.2 µM, Fa 90
  CI: 0.67
NCI-H661; [14]
  CI: 0.77

## CC[C@]1(O)C[C@@H]2CN(CCc3c([nH]c4ccccc34)[C@@](C(=O)OC)(c3cc4c(cc3OC)N(C)[C@H]3[C@@](O)(C(=O)OC)[C@H](OC(C)=O)[C@]5(CC)C=CCN6CC[C@]43[C@@H]65)C2)C1
HL-60; blending ratio (Compound A : combined compound) 1:1, Fa 50
  CI: 1.00
HL-60; [15]
  CI: 0.95
HL-60; [16]
  CI: 0.95
HL-60; [13]
  CI: 1.03
HL-60; [8]
  CI: 1.01
NCI-H661; [17]
  CI: 1.01
NCI-H661; [4]
  CI: 0.54
NCI-H661; [6]
  CI: 0.90
NCI-H661; [7]
  CI: 0.56

## CC(C)NC[C@@H](C(=O)N1CCN(c2ncnc3c2[C@H](C)C[C@H]3O)CC1)c1ccc(Cl)cc1
HL-60; [8]
  CI: 0.86
HL-60; [1]
  CI: 0.96
NCI-H661; [9]
  CI: 0.56
NCI-H661; [10]
  CI: 0.58
NCI-H661; [11]
  CI: 0.78

## Cn1c(=O)n(-c2ccc(C(C)(C)C#N)cc2)c2c3cc(-c4cnc5ccccc5c4)ccc3ncc21
HL-60; [15]
  CI: 0.86
HL-60; [18]
  CI: 0.95
HL-60; [8]
  CI: 1.09
HL-60; [1]
  CI: 1.02
NCI-H661; [17]
  CI: 0.88
NCI-H661; [5]
  CI: 1.06
NCI-H661; [6]
  CI: 0.91

## COc1cc([C@@H]2c3cc4c(cc3[C@@H](O[C@@H]3O[C@@H]5CO[C@@H](C)O[C@H]5[C@H](O)[C@H]3O)[C@H]3COC(=O)[C@H]23)OCO4)cc(OC)c1O
HL-60; [3]
  CI: 1.02
HL-60; [16]
  CI: 0.77
HL-60; [18]
  CI: 0.67
HL-60; [13]
  CI: 0.77
NCI-H661; [17]
  CI: 0.70
NCI-H661; [4]
  CI: 0.10
NCI-H661; [5]
  CI: 0.50
NCI-H661; [19]
  CI: 0.10
NCI-H661; [7]
  CI: 0.10

## CN(Cc1cnc2nc(N)nc(N)c2n1)c1ccc(C(=O)N[C@@H](CCC(=O)O)C(=O)O)cc1
HL-60; [12]
  CI: 0.70
HL-60; [1]
  CI: 0.93

## Cc1sc2c(c1C)C(c1ccc(Cl)cc1)=N[C@@H](CC(=O)OC(C)(C)C)c1nnc(C)n1-2
HL-60; [12]
  CI: 0.86
NCI-H661; Compound A : combined compound 1:1, Fa 75, 120 h culture
  CI: 0.44
NCI-H661; Compound A : combined compound 1:1, Fa 90, 120 h culture
  CI: 0.43
NCI-H661; Compound A : combined compound 1:4, Fa 75, 120 h culture
  CI: 0.35
NCI-H661; Compound A : combined compound 1:4, Fa 90, 120 h culture
  CI: 0.58
NCI-H661; Compound A : combined compound 4:1, Fa 50, 120 h culture
  CI: 0.78

## CC[C@]1(O)C[C@H]2CN(CCc3c([nH]c4ccccc34)[C@@](C(=O)OC)(c3cc4c(cc3OC)N(C=O)[C@H]3[C@@](O)(C(=O)OC)[C@H](OC(C)=O)[C@]5(CC)C=CCN6CC[C@]43[C@@H]65)C2)C1
HL-60; [15]
  CI: 0.75
NCI-H661; [5]
  CI: 0.89
NCI-H661; [19]
  CI: 0.25
NCI-H661; [7]
  CI: 0.56

## C[C@@H]1COCCN1c1cc(C2([S@](C)(=N)=O)CC2)nc(-c2cc[nH]c3nccc2-3)n1
NCI-H661; [4]
  CI: 0.10
NCI-H661; [19]
  CI: 0.10
NCI-H661; [7]
  CI: 0.10

## cisplatin
HL-60; Compound A + combined compound at fixed concentration 0.32 µM, Fa 50
  CI: 0.95
HL-60; Compound A + combined compound at fixed concentration 0.32 µM, Fa 75
  CI: 0.97
HL-60; Compound A + combined compound at fixed concentration 0.32 µM, Fa 90
  CI: 0.99
NCI-H661; NCI-H661, Compound A + combined compound at fixed concentration 0.32 µM, Fa 50
  CI: 0.92

## CO[C@H]1C[C@@H]2CC[C@@H](C)[C@@](O)(O2)C(=O)C(=O)N2CCCC[C@H]2C(=O)O[C@H]([C@H](C)C[C@@H]2CC[C@@H](OCCO)[C@H](OC)C2)CC(=O)[C@H](C)/C=C(\C)[C@@H](O)[C@@H](OC)C(=O)[C@H](C)C[C@H](C)/C=C/C=C/C=C/1C
HL-60; Compound A + combined compound at fixed concentration 1 µM, Fa 75
  CI: 0.77
NCI-H661; NCI-H661, Compound A + combined compound at fixed concentration 0.1 µM, Fa 50
  CI: 0.78
